GRP78 ERSR act: ER stress response induction in glioma; Potency, µM, for the others: top-dose activation, actives largely listed as activators; U87-MG GRP78 promoter luciferase reporter, 16 h; actives 0.02% (n = 420,000); AID 602332; further: potency means the concentration at half of the fitted maximal effect; series mostly up to about 76 µM; % of control where 0% means no effect; nearly all actives have a fitted effect of over 35% in size
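Stably transfected U87-MG glioma cells carrying a GRP78-based luciferase sensor; 16 h compound incubation. Luminescence end-point read 10 min after Bright-Glo addition at room temperature.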
Nrf2 inh: Nrf2 pathway inhibition | A549 ARE-Fluc reporter, luciferase luminescence, 18-24 h | Potency, µM (doses to about 46 µM), without a hit: top-dose activity change, negative = inhibition, actives largely listed as inhibitors | actives 2.1% (n = 360,000); further: potency means the concentration at half of the fitted maximal effect; on the % scale 0 is the no-effect control and ±100 the full control effect; nearly all actives have a fitted effect of over 60% in size
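Two sequential reads on A549 ARE_Fluc cells exposed to compound for 18-24 h: a CellTiter-Fluor fluorescence read for viability, then a luciferase luminescence read for Nrf2/ARE activity.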
Nrf2 ARE act: activators of Nrf2 (ARE) signaling; AREc32 ARE-luciferase reporter (MCF7-derived line), luminescence, 24 h; Potency, µM (series often up to 46.1 µM), inactives show top-dose activation, hits mostly activators; actives 0.31% (n = 410,000); further: potency means the concentration at half of the fitted maximal effect; % of control where 0% means no effect; nearly all actives have a fitted effect of over 65% in size
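Reporter line AREc32 (ARE-Fluc), seeded overnight in OPTI-MEM with 5% FBS; compound pin-transferred, 24 hr at 37 deg C, 5% CO2; luminescent read-out.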
miR-21 reporter: raises the signal of a miR-21 reporter; HeLa miR-21 FLuc reporter, luciferase, 48 h; Potency, µM (series often up to 38.3 µM), inactives show top-dose reporter change, positive = more light; 340,000 tested, under 10 active; active = well fitted rising curve with a large enough effect; inconclusive = small, poorly fitted or top-dose-only effect; inactive = no such curve, though single readings can be large or run the other way;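 also: % of control where 0% means no effect; miR-21 action dims this reporter so a rising signal means less miR-21 action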
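Using DMEM plus 10% FBS, HeLa miR-21-FLuc cells are incubated with test compounds (final up to about 40uM) for 48 hours; firefly luciferase signal is then imaged following reagent-mediated lysis.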
A549 viability: A549 cytotoxicity, counter-screen for Nrf2 inhibitors; A549 ARE-Fluc cells, CellTiter-Fluor viability, 18-24 h; actives 0.16% (n = 390,000); Potency, µM (highest dose often 46 µM), for inactives: top-dose activity change, negative = cytotoxicity, actives largely listed as inhibitors; AID 504648; further: potency means the concentration at half of the fitted maximal effect; on the % scale 0 is the no-effect control and ±100 the full control effect
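A549 ARE-Fluc cells in 5% FBS OPTI-MEM, 5000 cells/well, rested 2 h then exposed to compounds in concentration-response for 18-24 h at 37 °C. Viability by CellTiter-Fluor fluorescence (Ex 405/Em 525) after 30 min; luciferase luminescence (BugLite, 15 min, RT) read afterwards.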
Mito fusion act: mitochondrial division inhibition or fusion activation | Potency, µM (series often up to 46.1 µM), for the others: at the top dose growth rescue (activation), actives largely listed as activators | actives 0.23% (n = 320,000) | S. cerevisiae fusion-defective mutant growth rescue, CellTiterGlo 48 h; further: potency means the concentration at half of the fitted maximal effect; % of control where 0% means no effect; nearly all actives have a fitted effect of over 45% in size
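Luminescent cell viability in 1536-well qHTS format served as the measure of rescued growth in ts fusion-mutant S. cerevisiae cultured on non-fermentable YPEG for 48 hours at 37C.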
The depositor's hits bear a star; ? = inconclusive; · = no result; [ ] = dose if it differs, or a comment. An excerpt weighted towards active compounds, which were near 2.3% of everything screened. Unless noted, the call rests on the fitted dose curve; in most records, active means well fitted curve in the direction sought with a large enough effect; inconclusive means small, poorly fitted or top-dose-only effect, or another doubt; inactive means no such curve, though single readings can be large; an effect the other way counts as inactive or inconclusive.

(1) FC(F)(F)c1ccccc1Cc1c(-c2cccc(Br)c2)nc2c3ccccc3ccn12
(2) COc1ccc(Br)cc1S(=O)(=O)NNC(=O)c1c(C)nc2ccccn12
(3) Cc1nc2ccccn2c1C(=O)NNS(=O)(=O)c1ccc(C(C)(C)C)cc1
(4) Cc1ccc(C)c(N2CCN(C(=O)CCc3nc(-c4cccc(Br)c4)no3)CC2)c1
(5) O=C(Cc1n[nH]c(=O)c2ccccc12)NCc1ccccn1

entry no.,1,2,3,4,5
GRP78 ERSR act,3%,-2%,-3%,-1%,-4%
Nrf2 inh,·,-18%,9.2µM*,1%,-12%
Nrf2 ARE act,13µM*,1%,-1%,-1%,-1%
miR-21 reporter,·,0%,23%,·,-6%
A549 viability,·,-10%,-2%,-8%,0%
Mito fusion act,·,-5%,-3%,·,-5%

(6) O=C(Cn1cnc2ccccc21)Nc1ccc2c(c1)OCCCO2
(7) C=CC[n+]1c(-c2ccc(OC)c(OC)c2)csc1NNC(=O)Nc1ccccc1
(8) C=CC[n+]1c(-c2ccccc2)csc1NC(C)(C)C
(9) CC(C)(C)c1ccc(/C=C/C(=O)Nc2ccc3c(c2)OCCO3)cc1
(10) COCCn1c(-c2cccs2)nc2nc3ccccc3nc21

entry no.,6,7,8,9,10
GRP78 ERSR act,3%,-5%,-6%,-2%,2%
Nrf2 inh,13µM*,13µM*,15%,·,19%
Nrf2 ARE act,0%,17%,0%,·,12%
miR-21 reporter,·,17%,-1%,·,-9%
A549 viability,-15%,?,2%,·,1%
Mito fusion act,-2%,-10%,2%,15µM*,6%

(11) CCCn1c(-c2cccs2)nc2nc3ccccc3nc21
(12) CCOC(=O)c1cc2c(=O)n3ccccc3nc2n(C)c1=NC(=O)c1cc2ccccc2o1
(13) CCCNC(=O)c1nnsc1S(=O)(=O)c1ccc(Cl)cc1
(14) CCCNC(=O)c1nnsc1S(=O)c1ccc(Cl)cc1 (stereo not drawn)
(15) CCOc1cc(/C=N/Nc2cccc(C(=O)O)c2)ccc1OCC(=O)N1CCCCC1

entry no.,11,12,13,14,15
GRP78 ERSR act,0%,-4%,-13%,-12%,-4%
Nrf2 inh,19%,·,23µM*,-3%,?
Nrf2 ARE act,4.5µM*,0%,-3%,-2%,0%
miR-21 reporter,-2%,0%,?,?,-36%
A549 viability,-4%,-3%,?,-1%,-7%
Mito fusion act,4%,·,-5%,-2%,2%

(16) CN(CC(=O)Nc1cccc(F)c1)C(=O)c1cccc(S(=O)(=O)N2CCN(c3ccc(F)cc3)CC2)c1
(17) CN(CC(=O)Nc1ccccc1Cl)C(=O)c1cccc(S(=O)(=O)N2CCN(c3ccc(F)cc3)CC2)c1
(18) CN(Cc1cccc(Cl)c1Cl)C(=O)c1cccc(S(=O)(=O)N2CCN(Cc3ccccc3)CC2)c1
(19) Cc1cccc(C)c1NC(=O)CN(C)C(=O)c1cccc(S(=O)(=O)N2CCN(c3ccccc3)CC2)c1
(20) CN(CC(=O)Nc1ccccc1Cl)C(=O)c1cccc(S(=O)(=O)N2CCN(c3ccccc3)CC2)c1

entry no.,16,17,18,19,20
GRP78 ERSR act,-1%,0%,-5%,-1%,-5%
Nrf2 inh,16µM*,5.2µM*,13µM*,-26%,21µM*
Nrf2 ARE act,3%,0%,-1%,0%,-1%
miR-21 reporter,·,-28%,15%,12%,·
A549 viability,?,-15%,-16%,4%,-20%
Mito fusion act,·,-1%,-13%,3%,·

(21) CCCN1CCN(c2nc(-c3cccs3)nc3ccccc23)CC1
(22) COc1cccc2c1cc1c(=O)n(CC(=O)N3CCN(c4ccc(F)cc4)CC3)nc(C)n12
(23) CN(CC(=O)Nc1ccccc1Cl)C(=O)c1cccc(S(=O)(=O)N2CCN(Cc3ccccc3)CC2)c1
(24) Cc1ccc(NC(=O)c2cccc(S(=O)(=O)N3CCN(c4ccc(F)cc4)CC3)c2)nc1
(25) Cc1ccnc(NC(=O)c2ccc(NC(=O)CC3SC(N4CCCC4)=NC3=O)cc2)c1 (stereo not drawn)

entry no.,21,22,23,24,25
GRP78 ERSR act,-5%,-4%,-1%,0%,0%
Nrf2 inh,-7%,10%,15µM*,23µM*,?
Nrf2 ARE act,0%,0%,0%,4%,0%
miR-21 reporter,-3%,1%,·,19%,·
A549 viability,-1%,3%,-5%,-5%,-1%
Mito fusion act,2%,·,4%,-7%,-1%

(26) O=C(CC1SC(N2CCCC2)=NC1=O)Nc1ccc(C(=O)Nc2ncccc2O)cc1 (stereo not drawn)
(27) O=C(CC1SC(N2CCCC2)=NC1=O)Nc1ccc(C(=O)N2CCN(c3cccc(Cl)c3)CC2)cc1 (stereo not drawn)
(28) CN(Cc1ccccc1F)C(=O)c1cccc(NC(=O)CC2SC(N3CCCCC3)=NC2=O)c1 (stereo not drawn)
(29) CN(Cc1ccccc1F)C(=O)c1ccc(NC(=O)CC2SC(N3CCCCC3)=NC2=O)cc1 (stereo not drawn)
(30) Cc1cccc(N2CCN(C(=O)c3ccc(NC(=O)CC4SC(N5CCCC5)=NC4=O)cc3)CC2)c1C (stereo not drawn)

entry no.,26,27,28,29,30
GRP78 ERSR act,?,-4%,-4%,2%,1%
Nrf2 inh,14%,21µM*,18µM*,15%,?
Nrf2 ARE act,16µM*,0%,4%,2%,4%
miR-21 reporter,·,·,·,·,·
A549 viability,-1%,?,-11%,7%,2%
Mito fusion act,2%,-4%,·,·,·

(31) CC1=CN(S(=O)(=O)c2ccc(C)cc2)C[C@@H]2[C@H]3CC[C@H](C3)[C@H]12
(32) COc1ccc(NC(=O)c2cc3c(s2)CCC(C)C3)cc1S(=O)(=O)N1CCOCC1 (stereo not drawn)
(33) COc1ccc(C(=O)Nc2ccc(N3CCOCC3)cc2)cc1S(=O)(=O)N1CCOCC1
(34) COc1ccc(C(=O)Nc2ccc(-c3ccc(C)o3)cc2)cc1S(=O)(=O)N1CCOCC1
(35) Cc1ccc(NC(=O)c2cc3c(s2)CCC3)cc1S(=O)(=O)N1CCOCC1

entry no.,31,32,33,34,35
GRP78 ERSR act,-2%,1%,-1%,2%,0%
Nrf2 inh,?,18µM*,-4%,18µM*,21µM*
Nrf2 ARE act,4%,0%[9.22 µM],0%,4%,0%
miR-21 reporter,·,30%,·,26%,0%
A549 viability,15%,-17%,1%,?,-19%
Mito fusion act,·,-2%,-4%,-3%,9%

(36) Cc1ccc2[nH]c(=O)c(CN(Cc3ccco3)Cc3nnnn3Cc3ccco3)cc2c1
(37) COc1ccc(Cl)cc1NC(=O)CSC1=NN2CCCC(=O)N=C2S1
(38) O=C(NCCn1cc(SCc2cccc(F)c2)c2ccccc21)c1cccc(C(F)(F)F)c1
(39) COc1ccc(Cl)cc1NC(=O)CSc1cn(CC(=O)N2CCCC2)c2ccccc12
(40) COc1ccc(C(=O)NCCn2cc(SCc3cccc(F)c3)c3ccccc32)cc1OC
(41) COc1ccc(OC)c(NC(=O)CSC2=NN3CCCC(=O)N=C3S2)c1
(42) COc1ccccc1C(=O)NCCn1cc(SCC(=O)Nc2ccccc2F)c2ccccc21

entry no.,36,37,38,39,40,41,42
GRP78 ERSR act,-3%,-3%,-2%,-3%,-5%,-1%,-5%
Nrf2 inh,?,23µM*,?,-24%,23µM*,-10%,23µM*
Nrf2 ARE act,·,2%,0%,0%,-1%,0%,0%
miR-21 reporter,·,10%,-12%,?,?,-4%,?
A549 viability,1%,-13%,-28%,-3%,-16%,1%,-21%
Mito fusion act,·,3%,·,·,·,5%,·

A draw from above in order of number of heavy atoms, rising.
(37) COc1ccc(Cl)cc1NC(=O)CSC1=NN2CCCC(=O)N=C2S1
(36) Cc1ccc2[nH]c(=O)c(CN(Cc3ccco3)Cc3nnnn3Cc3ccco3)cc2c1
(38) O=C(NCCn1cc(SCc2cccc(F)c2)c2ccccc21)c1cccc(C(F)(F)F)c1
(42) COc1ccccc1C(=O)NCCn1cc(SCC(=O)Nc2ccccc2F)c2ccccc21

entry no.,37,36,38,42
GRP78 ERSR act,-3%,-3%,-2%,-5%
Nrf2 inh,23µM*,?,?,23µM*
Nrf2 ARE act,2%,·,0%,0%
miR-21 reporter,10%,·,-12%,?
A549 viability,-13%,1%,-28%,-21%
Mito fusion act,3%,·,·,·

Assay outcomes: PubChem, National Center for Advancing Translational Sciences (NCATS)
